Consider one molecule from patent US20100260680A1, “NOVEL BONE MASS INCREASING AGENT” (ORIENTAL YEAST CO., LTD., priority 2007, published 2010).

In experiment [1] the test system is RANKL knock-down MC3T3-E1 cells. Briefly: ALP activity in RANKL knock-down MC3T3-E1 cells. The note with it: KD1 and KD2; 200 μM peptide D or 200 ng/ml BMP-2; 5 days. Format: cell-based, mouse. On the procedure:
In this regard, the RANKL expression levels in C2C12 cells were confirmed to increase upon the addition of BMP-2 (FIG. 35). Then, RANKL knockdown was performed in MC3T3-E1 cells with RNAi stealth in order to examine ALP activity enhancement actions of peptide D and the influence of RANKL knockdown. OPTiMEM (Invitrogen) (20 μL) and RNA-stealth select (tnfrsfl1) (Invitrogen) (1.2 pmol) were gently mixed in each well. After 5 minutes, Lipofectamine RNAiMAX (Invitrogen) (0.2 μL) was added thereto and each resultant was left at room temperature for 20 minutes. Further, MC3T3-E1 cells were seeded in each well (4×10^3 cells), followed by culture in a CO2 incubator for 48 hours. The culture solution was removed therefrom and αMEM containing 200 μM peptide D or 200 ng/ml BMP-2 was added thereto, followed by culture for further 5 days. Then, ALP activity determination was carried out by the method described in Example 1. In addition, for 3 types of RANKL (TNFRSF11) (KD) negative controls, similar experiments were carried out using Stealth RNAi negative universal control (Invitrogen). Cells were recovered in a necessary amount and mRNA was extracted therefrom by the method described in Example 7. Then, RANKL knockdown was confirmed using primers represented by SEQ ID NOS: 17 and 18 by RT-PCR.

Experiment [2] deals with MAP kinase p38. Briefly: Western blotting of p38 phosphorylation in MC3T3-E1 cells. Format: cell-based, mouse. To be noted: 1 hour after the addition; 200 ng/ml BMP-2. On the procedure:
MC3T3-E1 cells mixed with 10% FBS+αMEM (SIGMA) were seeded on a 6-well plate (7.5×10^4 cells/well). After 12 hours, the medium was removed therefrom and a medium containing 200 μM peptide D or 200 ng/ml BMP-2 was added thereto. The medium was removed at the respective time points shown in the relevant figures. PBS was added to the cells, and the cells were collected with a scraper (Falcon). A cell pellet was obtained via centrifugation at 1200 rpm for 5 min at 4° C. RIPA buffer (100 μL) was added to the collected pellet, for dissolution of the cellular membrane. Further, the resultant was centrifuged under conditions of 14500 rpm for 25 min at 4° C. The supernatant was collected as a cell extract. A portion of the cell extract was used for quantification of the protein concentration with the use of a BCA protein assay kit (PIERCE). For SDS-PAGE, a sample buffer in an amount that was ¼ that of the cell extract (Fermentas) was added thereto, followed by heating at 95° C. for 5 min. The prepared sample was applied in an amount of 7.5 or 10 μg to 10% polyacrylamide gel (BioRad), followed by electrophoresis at 170 V for 1 hour. After electrophoresis, the electrophoresed sample was transferred to a PVDF membrane (Millipore) at 80 mA for 40 min. […]

B1: BMP-2: BMP-2 (R&D), known bone morphogenetic factor used as positive control (protein, UniProt P12643 283-396, looked up)
Bone morphogenetic protein 2: QAKHKQRKRLKSSCKRHPLYVDFSDVGWNDWIVAPPGYHAFYCHGECPFPLADHLNSTNHAIVQTLVNSVNSKIPKACCVPTELSAISMLYLDENEKVVLKNYQDMVVEGCGCR
As to B1, the “ALP activity enhancement under RANKL knockdown” value in experiment [1] was “not influenced by RANKL knockdown”. The p38 phosphorylation result in experiment [2] is reported as “p38 phosphorylation was observed”.
